Results as given in PubChem BioAssay AID2716 (Broad Institute, 2010).
Only a part is listed here, and it is no random draw. The source made the active and inactive calls.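 How the source made its calls: active means every valid replicate shows activation above 250% relative to neutral control wells; inactive means the rest, any valid replicate at or below 250%.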

Assay: yeast Mot1-301 growth rescue at high temperature, primary screen, SUMOylation pathway inhibitor project, S. cerevisiae, ATP luminescence, 38.5C (AID 2716);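 further: OY570 slx delta 5 strain wells were the positive control but not used for scaling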
Conditions: S. cerevisiae Mot1-301 growth rescue, at 18.8 µM, hits give high values, percent above DMSO median, 100 means doubled

| Structure (SMILES) | growth rescue |
| --- | --- |
| Clc1n[nH]nc1-c1nn[nH][15n]1 | inactive: 9.04% |
| CC(C)(C)C(=O)NC(Sc1ncccn1)C(Cl)(Cl)Cl (centres undefined) | inactive: -2.09% |
| CCOP(=O)(Nc1ccc(C)cn1)OCC | inactive: -8.4% |
| CN(CCCl)Cc1cc(Cl)c(NC2=NCCN2)c(Cl)c1 | inactive: 1.29% |
| O=P1(Nc2ccccn2)COc2ccccc2OC1 | inactive: -1.7% |
| CCC1=CC2Cc3nc4ccc(Cl)cc4c(N)c3C(C1)C2 (centres undefined) | inactive: 13.6% |
| CCOP(=O)(NC(=NC(C)c1ccccc1)NC(C)c1ccccc1)OCC (centres undefined) | inactive: 40.6% |
| O=[As](O)(c1ccccc1Br)c1ccccc1Br | inactive: 2.16% |
| CC1(CBr)Cn2c(nc3ccccc3c2=O)S1 (centres undefined) | inactive: -24.2% |
| CC(C)/C=N\N=C(\N)N[N+](=O)[O-] | inactive: 135% |
| CN(C(=O)Cc1ccc(Cl)c(Cl)c1)[C@@H]1CCCC[C@H]1N1CCCC1 | inactive: -15% |
| COc1ccccc1CNC(=O)COC(=O)C(O)(c1ccccc1)c1ccccc1 | inactive: -12.4% |
| O=C(/C=C/c1ccccc1)OC1CN2CCC1CC2 (centres undefined) | inactive: 4.87% |
| CN(C)C1(CNC(=O)c2ccc(S(C)(=O)=O)cc2)CCCCC1 | inactive: 17.1% |
| Cc1nn(-c2ccccc2)c2c1P(=O)(N1CCOCC1)N(C)C(c1ccccc1)=N2 (centres undefined) | inactive: 171% |
| CC1CCC(C(C)C)C(OP(=O)(Nc2ccccn2)c2ccccc2)C1 (centres undefined) | inactive: 13.4% |
| Cc1ccc(C(=O)OC2CN3CCC2CC3)cc1 (centres undefined) | inactive: 211% |
| O=[As](O)(c1cccs1)c1cccs1 | inactive: 545% |
| Cc1ccc(OCC(=O)OC2CN3CCC2CC3)cc1 (centres undefined) | inactive: 6.07% |
| O=P1(Nc2ccc(Br)cn2)COc2ccccc2OC1 | inactive: -19.7% |
| NS(=O)(=O)c1cccc(NC(=O)COC(=O)C(O)(c2ccccc2)c2ccccc2)c1 | inactive: -15.9% |
| Nc1cccc([As](=O)(O)c2ccccc2)c1 | inactive: 36% |
| O=P1(Nc2ncccn2)COc2ccccc2OC1 | inactive: -1.91% |
| Nc1ccccc1[As](=O)(O)c1ccccc1 | inactive: -15.2% |
| O=C(O)COc1ccc([As](=O)(O)O)cc1[N+](=O)[O-] | inactive: 12.4% |
| CS(=O)(=O)c1cc([N+](=O)[O-])c2no[n+]([O-])c2c1 | inactive: 75.2% |
| CCOP1(=S)c2c(C)nn(CCC#N)c2N=C(c2ccccc2F)N1C (centres undefined) | inactive: 1.82% |
| O=P(Nc1nccs1)(Oc1ccccc1)Oc1ccccc1 | inactive: 9.68% |
| O=P(Nc1nccs1)(c1ccccc1)c1nc2ccccc2s1 (centres undefined) | inactive: 13.3% |
